Earlier results in patent US20070111204A1, “Methods for detecting nucleic acid variations” (priority 2003, published 2007).

Chains of the proteins cited; added tags and fusions are not shown. Residues count along the entry.
UniProt Q63118, 24-464: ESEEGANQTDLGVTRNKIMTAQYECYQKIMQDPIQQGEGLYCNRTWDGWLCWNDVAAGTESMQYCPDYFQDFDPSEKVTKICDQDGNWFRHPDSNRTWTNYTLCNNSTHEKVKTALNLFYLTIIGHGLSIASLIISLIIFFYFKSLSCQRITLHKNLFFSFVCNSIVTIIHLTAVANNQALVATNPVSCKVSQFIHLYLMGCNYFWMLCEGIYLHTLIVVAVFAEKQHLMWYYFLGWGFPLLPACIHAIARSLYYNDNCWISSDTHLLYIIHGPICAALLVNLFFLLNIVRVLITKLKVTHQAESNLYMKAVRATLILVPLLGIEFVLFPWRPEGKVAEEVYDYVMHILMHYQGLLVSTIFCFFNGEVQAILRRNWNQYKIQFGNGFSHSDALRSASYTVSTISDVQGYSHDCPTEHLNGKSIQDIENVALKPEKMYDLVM
UniProt Q9JJ74, 27-148: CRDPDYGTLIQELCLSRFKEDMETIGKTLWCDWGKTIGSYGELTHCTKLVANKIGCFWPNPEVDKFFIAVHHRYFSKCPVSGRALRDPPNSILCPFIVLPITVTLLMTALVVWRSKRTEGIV

How the values were obtained:
CGRP [1] = target: T1, CGRP (Rattus norvegicus, UniProt Q63118+Q9JJ74); settings: rats, electrical stimulation of the dura mater, prior administration (Williamson et al. 1997)
T1 construct: host or cells: living rat (dural / facial vasculature), endogenous receptor

CGRP [2] = target: T1, CGRP; settings: trigeminal ganglion stimulation (Escott et al. 1995)

Substance: CGRP(8-37)
- effect on increase of middle meningeal artery diameter (CGRP [1]): blocked
- effect on increase of facial blood flow (CGRP [2]): inhibited
